Values of other authors as cited in US12472150B2, “Delivery system comprising silicon-containing material” (SISAF LIMITED, priority 2019, dated 2025).

Settings: room temperature

Orthosilicic acid [OSA]
Concentration at which OSA is stable in water (solubility limit of the amorphous phase): below 2 mM
